Patent US7816134B2, “Method of extensive culture of antigen-specific cytotoxic T cells” (Takara Bio Inc., priority 2000, dated 2010)

Test system: HLA-A2.1-having EBV transformed B-cells (221A2.1)
Settings: for Cytotoxic Activity (%) E/T Ratio 1 / Cytotoxic Activity (%) E/T Ratio 3 / Cytotoxic Activity (%) E/T Ratio 10: FluMPA2.1
[1] = Example 1-3, sample 10 μg/ml during CTL induction +, during culture with IL-2 +, peptide addition +
[2] = Example 1-3, sample 10 μg/ml during CTL induction +, during culture with IL-2 +, peptide addition −
[3] = Example 1-5, sample during CTL induction −, during culture with IL-2 + (10 μg/ml), peptide addition +
[4] = Example 1-5, sample during CTL induction −, during culture with IL-2 + (10 μg/ml), peptide addition −

Substance: sulfated D-(+)-glucose [Sulfated Glucose]
- Cytotoxic Activity (%) E/T Ratio 1 [1]: 34.0%
- Cytotoxic Activity (%) E/T Ratio 3 [1]: 67.8%
- Cytotoxic Activity (%) E/T Ratio 10 [1]: 92.1%
- Cytotoxic Activity (%) E/T Ratio 1 [2]: 14.3%
- Cytotoxic Activity (%) E/T Ratio 3 [2]: 27.8%
- Cytotoxic Activity (%) E/T Ratio 10 [2]: 21.0%
- Cytotoxic Activity (%) E/T Ratio 1 [3]: 8.1%
- Cytotoxic Activity (%) E/T Ratio 3 [3]: 17.8%
- Cytotoxic Activity (%) E/T Ratio 10 [3]: 32.5%
- Cytotoxic Activity (%) E/T Ratio 1 [4]: 2.2%
- Cytotoxic Activity (%) E/T Ratio 3 [4]: 2.4%
- Cytotoxic Activity (%) E/T Ratio 10 [4]: 7.5%
- cytotoxic activity after continuous culture (in words) (sample 10 μg/ml only during continuous culture): maintaining an antigen-specific cytotoxic activity

Where two headings read alike, the source gives them in different places.
